Earlier results as cited in patent US20190106747A1, “DRUGS, PHARMACOGENOMICS AND BIOMARKERS FOR ACIVE LONGEVITY” (Indiana University Research and Technology Corporation, priority 2016, published 2019).

System: MME
Details: Table 5 biomarkers in males; longevity direction of change D; cited from earlier work

## CCOC(=O)[C@H](C)C[C@@H](Cc1ccc(-c2ccccc2)cc1)NC(=O)CCC(=O)O [sacubitril]
  MME modulated by drug in the same direction as longevity: sacubitril
